In ChEMBL document CHEMBL1135556, “alpha-bromoacetophenone derivatives as neutral protein tyrosine phosphatase inhibitors: structure-Activity relationship” (Bioorg Med Chem Lett, 2002):
pKi: −log10 of the molar value.

Assays:
[1] = biological target: T1, Tyrosine-protein phosphatase non-receptor type 6 (Homo sapiens, UniProt P29350)
[2] = biological target: Tyrosine-protein phosphatase non-receptor type 6, SHP-1 (Homo sapiens) (UniProt P29350); experiment: Dissociation constant towards SHP-1 receptor-inhibitor complex was determined using PNP as substrate
[3] = biological target: Tyrosine-protein phosphatase non-receptor type 6, SHP-1 (Homo sapiens) (UniProt P29350); experiment: First-order rate constant (K inact) for conversion of the ExI complex (SHP-1 -inhibitor complex) into the covalent adduct, EI was determined using PNP as substrate
[4] = biological target: T1, Tyrosine-protein phosphatase non-receptor type 6; experiment: Dissociation constant towards SHP 1 receptor-inhibitor complex was determined using PNP as substrate

Question: How did the kinact [1] turn out when `O=C(O)CCC(NC(=O)[C@H](CCC(=O)O)NC(=O)CNC(=O)c1ccccc1-c1ccc(C(=O)CBr)cc1)C(=O)O` (some centres undefined) was run?
Answer: Its kinact is over 0.13 min⁻¹.

Question: And the pKi [2]?
Answer: The pKi was 5.00.

Question: What about the kinact [3] of the same molecule?
Answer: The kinact was 0.36 min⁻¹.

Question: And the pKi [4]?
Answer: The pKi was under 3.70.
